These are literature values, as cited in PMC5742115, “Pharmacophore Modeling and in Silico/in Vitro Screening for Human Cytochrome P450 11B1 and Cytochrome P450 11B2 Inhibitors” (Frontiers in Chemistry, 2017).

Molecules are shown by their SMILES.

The series concerns CYP11B2. Conditions: reported activity, supplementary Table 1; ref Ulmschneider et al., 2005b; cited from earlier work.

In general, IC50 refers to the midpoint of a concentration-inhibition curve. On to `N#Cc1ccc2c(c1)CC/C2=C\c1cnc[nH]1` [CHEMBL177921], for which the IC50 was 35.9 nM.

With `N#Cc1ccc2c(c1)CCC/C2=C/c1cnc[nH]1` [CHEMBL367483], the concentration for half-maximal inhibition (IC50) is 22.7 nM.
